Apparent affinities of Ab-95 variants for a coronavirus HR2 peptide

Source: Engelhart et al. 2022 (doi:10.1038/s41597-022-01779-4), MIT Lincoln Laboratory and A-Alpha Bio; data file from the FLAb repository.

Antigen: PDVDLGDISGINAS, a 14-residue peptide of the SARS-CoV-2 spike HR2 region.

Parent: Ab-95, a human scFv built as VH, a (GGGGS)3 linker, VL. Only the CDRs of the light chain vary.
VH: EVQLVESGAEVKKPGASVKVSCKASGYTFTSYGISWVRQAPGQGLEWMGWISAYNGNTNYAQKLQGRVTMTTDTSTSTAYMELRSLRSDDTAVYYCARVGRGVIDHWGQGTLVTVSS
VL: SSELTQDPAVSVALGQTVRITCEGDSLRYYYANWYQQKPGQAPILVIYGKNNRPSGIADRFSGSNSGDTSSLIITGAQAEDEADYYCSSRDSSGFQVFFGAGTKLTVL

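The starting antibody came from a phage panning campaign against this peptide. Variants in AAYL52 differ from the parent at up to three CDR positions; double and triple changes were sampled at random. The assay is AlphaSeq: two haploid yeast populations carry antibody and antigen on their surface. Pairs that bind mate more often; barcode pairs of the diploids are counted by sequencing. Each replicate has its own calibration line, from reference interactions of the BCL2 family. Mating was done three times.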

Variants are written as CDR1, CDR2 and CDR3 of the light chain (limits as in the source). Parent: EGDSLRYYYAN, GKNNRPS, SSRDSSGFQVF. Each Kd is an estimate from the mating assay, the geometric mean of the replicates in which the pair was seen; lower is stronger. An entry "nd" has no value in the source: the pair was not observed among the diploids in any replicate. This suggests poor binding but is not conclusive. Empty control strains, which show no peptide, gave a signal in 28% of pairings with library AAYL52; the median was 8.2 µM and 95% of these signals were weaker than 800 nM. No background was subtracted.

Kd	seen in	CDR-L1	CDR-L2	CDR-L3
3.4 µM	3 of 3	EGDPLRYCYAN	AKNNRPS	SSRDSSGFQVF
2.7 µM	3 of 3	EIASFRYYYAN	GKNNRPS	SSRDSSGFQVF
63 µM	1 of 3	EGDKLRYYYAN	GKNNRPS	SSRDSSGFQVP
1.3 µM	3 of 3	LGDSLRYYYAN	GKNNRPS	SSRDSSPNQVF
18 µM	2 of 3	EVDSLRYYIAN	GKNNRPS	SSRDSSGAQVF
nd	0 of 3	VGDSLRYYYAN	GKNNRPS	RSRDSSGFQVF
9.6 µM	2 of 3	EADSLRYYYAN	TKNNRPV	SSRDSSGFQVF
1.2 µM	2 of 3	EGDHLRYYYAN	GKNNRHS	SSRDSSSFQVF
260 µM	1 of 3	EHDSLRYYYAN	MKNNRPS	SSRDSSMFQVF
nd	0 of 3	EGFRLRYIYAN	GKNNRPS	SSRDSSGFQVF
nd	0 of 3	AGWSLRYYYAN	GKNNRPS	QSRDSSGFQVF
100 µM	2 of 3	PGDSLRYYYAN	SKNNRPS	SSTDSSGFQVF
36 µM	1 of 3	EGDSLRYYYAN	GKANRPS	SSRFSSGFQRF
1.6 µM	1 of 3	EGDSLRYYYAN	AKNNRPW	SSRDYSGFQVF
130 nM	3 of 3	NGDSLRYYYAN	DKNNRPS	SSRDSSGAQVF
360 nM	3 of 3	EGDALRAYYAN	GKNNRPS	SSRDSSGFQQF
150 nM	3 of 3	EGDSLRYYYAN	GKNNRPQ	ESRDSPGFQVF
2.5 µM	3 of 3	ENDSLRYNYAN	GKNNRPS	SSRDSSGEQVF
4.4 µM	1 of 3	EGDSLRYYYFN	GKINKPS	SSRDSSGFQVF
560 nM	3 of 3	EGDSLRYYHAN	DKFNRPS	SSRDSSGFQVF
11 µM	2 of 3	EGDSLRYYYMN	GKNNRPS	SSRHSSGFQCF
nd	0 of 3	EGDSLRYYAAN	GKNNRPS	SSGTSSGFQVF
15 µM	1 of 3	EGDSLRYYYAN	NKNNRPS	SWRDSSGFQVD
170 nM	3 of 3	EGDSLRYYYAN	GKNNRPS	SEKDSRGFQVF
nd	0 of 3	EGDSERYYYAN	GKNNFLS	SSRDSSGFQVF
6.0 nM	3 of 3	EGDSLRYKYAN	GPNNRPS	SSRDSSGFQVW
98 µM	1 of 3	ERDSLRYYYAN	GKNNRPS	SSADSSGFQVF
280 nM	3 of 3	EGDSLREYYAN	GKNNRPS	SSRDSRGFGVF
1.9 µM	3 of 3	EGDSLRYYYHN	GKNNRPS	KSRDSSGFQVF
5.1 µM	2 of 3	EGDSLHYYYAN	GKQNRPS	SPRDSSGFQVF
130 nM	3 of 3	EGDSLRYYDAN	GFNNRPS	SSRDSSGFDVF
5.0 µM	2 of 3	EEDSLRYYYAN	GINNRPS	ESRDSSGFQVF
50 nM	3 of 3	LGDSLRYYYAN	GKNNRPT	SSRDSSGFQVF
130 µM	2 of 3	EGDSLRYYYAN	GKNNRPS	SSLDSSGIQVW
31 µM	1 of 3	EGDSLRYYYAN	GKTNRPS	SSRDFSGGQVF
55 µM	2 of 3	EGDLLRYYYAN	GKNNRPQ	SSRDSSGFQVF
7.1 µM	1 of 3	EGDSLRYYYCN	AKNNRPS	SMRDSSGFQVF
nd	0 of 3	EGDSLRYYYAN	GKNNRIS	SSRDSSGFQIR
21 µM	3 of 3	EGDSLRYYYAN	GKVNRWS	SSRDSSGFQVF
7.2 µM	2 of 3	EGDSVRYYYAN	GKNQRKS	SSRDSSGFQVF
350 nM	3 of 3	EGDSLRWYYAN	GENNRPS	SSRDSSGSQVF
16 µM	2 of 3	EGDSLRYYYAN	GKNYRPS	SSLDSTGFQVF
220 nM	3 of 3	EGDSLRHWYAN	GKNNRPN	SSRDSSGFQVF
3.8 µM	3 of 3	ETDSLRYYYAN	GKNTRPS	SMRDSSGFQVF
59 µM	1 of 3	ELWSLRYYYAN	GKNNRPV	SSRDSSGFQVF
12 µM	2 of 3	EGDSLRYYYAN	GKNNIPS	SSRDMSGFQVF
17 µM	2 of 3	EYDSLRVYYAC	GKNNRPS	SSRDSSGFQVF
4.2 µM	1 of 3	EGDSLRYYYAN	GWNNRPS	SSRDMSGFQVA
100 nM	3 of 3	EGDSLRYYYAN	GKNNRPS	SSRDFWGFQVF
26 µM	3 of 3	EGDTLRYYTAN	GKDNRPS	SSRDSSGFQVF
nd	0 of 3	EGDSLRYYYAR	GKNDRPS	SSRLSSGFQVF
nd	0 of 3	NGDSLRYRYAN	GKNNRPS	SSRLSSGFQVF
1.9 µM	3 of 3	EGDSLRYYRAN	GHNNTPS	SSRDSSGFQVF
310 µM	1 of 3	EEDSLRYYHAN	GKNNRPS	SSRDSSGFQDF
310 nM	3 of 3	EGKSLRYYYAN	GCNNRPS	SSRDKSGFQVF
140 nM	3 of 3	EGDSLRYYSAN	GKNNRPS	SSRYSSGFQVF
3.6 µM	3 of 3	EGDSLRYPYGN	GKNNRES	SSRDSSGFQVF
610 µM	1 of 3	EGDSLRYYYAN	GLNNRPS	SSRDGSGFQGF
8.8 µM	3 of 3	EGDSLAYYYRN	GSNNRPS	SSRDSSGFQVF

The opening 9 entries, copied out:

CDR-L1	CDR-L2	CDR-L3	Kd	seen in
EGDPLRYCYAN	AKNNRPS	SSRDSSGFQVF	3.4 µM	3 of 3
EIASFRYYYAN	GKNNRPS	SSRDSSGFQVF	2.7 µM	3 of 3
EGDKLRYYYAN	GKNNRPS	SSRDSSGFQVP	63 µM	1 of 3
LGDSLRYYYAN	GKNNRPS	SSRDSSPNQVF	1.3 µM	3 of 3
EVDSLRYYIAN	GKNNRPS	SSRDSSGAQVF	18 µM	2 of 3
VGDSLRYYYAN	GKNNRPS	RSRDSSGFQVF	nd	0 of 3
EADSLRYYYAN	TKNNRPV	SSRDSSGFQVF	9.6 µM	2 of 3
EGDHLRYYYAN	GKNNRHS	SSRDSSSFQVF	1.2 µM	2 of 3
EHDSLRYYYAN	MKNNRPS	SSRDSSMFQVF	260 µM	1 of 3